Test results as given in patent US11413261B2, “Pharmaceutical composition for treating cancer comprising lactate metal salt” (METIMEDI PHARMACEUTICALS CO., LTD, priority 2014, dated 2022).

Test system: human breast cancer cell line (MCF-7) showing a resistance to Trastuzumab
Assay: Colony-forming ability, Trastuzumab in combination with calcium lactate (6-well plates)
Format: cell-based
Conditions: Trastuzumab-resistant MCF-7; 0.23, 0.45, 1.8 μg/ml Trastuzumab alone; vs control
Method: Human breast cancer cell line (MCF-7) with the cell number of 1×10^3 cells showing a resistance to an anticancer drug Trastuzumab were seeded into an RPMI1640 medium (including 1% fetal bovine serum+500 ng/μl epithelial growth factor) in each of the 6-well plates. After one day, the medium was replaced with fresh medium and the cells were treated with 2.5 mM calcium lactate or 0.23 μg/ml, 0.45 μg/ml, and 1.8 μg/ml Trastuzumab alone or treated with various concentrations (0.23 μg/ml, 0.45 μg/ml, and 1.8 μg/ml) of Trastuzumab in combination with 2.5 mM calcium lactate. Then, the colony-forming abilities of the cells were compared. In this case, a human breast cancer cell line (MCF-7) untreated with any drug was used as a control group (FIGS. 54a and 54b).

Trastuzumab [reference compound] was tested, and the colony-forming ability was “little difference”.
